Data from ChEMBL document CHEMBL2375349, “Discovery of subtype selective muscarinic receptor antagonists as alternatives to atropine using in silico pharmacophore modeling and virtual screening methods” (2013).

Amino acid sequences for entries named in this document (tags omitted). A change or cut given only in a name is not applied to a line headed by its entry.
UniProt P11229: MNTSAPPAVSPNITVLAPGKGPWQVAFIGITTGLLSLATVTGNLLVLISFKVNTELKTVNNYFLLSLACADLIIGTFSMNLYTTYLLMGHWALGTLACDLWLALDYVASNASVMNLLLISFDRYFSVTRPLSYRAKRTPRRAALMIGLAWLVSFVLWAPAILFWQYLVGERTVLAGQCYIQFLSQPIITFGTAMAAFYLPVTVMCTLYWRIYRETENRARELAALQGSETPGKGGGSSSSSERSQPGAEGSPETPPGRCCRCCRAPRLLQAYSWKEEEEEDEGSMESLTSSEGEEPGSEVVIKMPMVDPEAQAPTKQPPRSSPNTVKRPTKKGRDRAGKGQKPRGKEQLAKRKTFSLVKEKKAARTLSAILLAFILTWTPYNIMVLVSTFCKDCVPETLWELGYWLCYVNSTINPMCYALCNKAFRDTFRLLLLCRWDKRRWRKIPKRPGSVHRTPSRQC
UniProt P08172, whole entry, looked up: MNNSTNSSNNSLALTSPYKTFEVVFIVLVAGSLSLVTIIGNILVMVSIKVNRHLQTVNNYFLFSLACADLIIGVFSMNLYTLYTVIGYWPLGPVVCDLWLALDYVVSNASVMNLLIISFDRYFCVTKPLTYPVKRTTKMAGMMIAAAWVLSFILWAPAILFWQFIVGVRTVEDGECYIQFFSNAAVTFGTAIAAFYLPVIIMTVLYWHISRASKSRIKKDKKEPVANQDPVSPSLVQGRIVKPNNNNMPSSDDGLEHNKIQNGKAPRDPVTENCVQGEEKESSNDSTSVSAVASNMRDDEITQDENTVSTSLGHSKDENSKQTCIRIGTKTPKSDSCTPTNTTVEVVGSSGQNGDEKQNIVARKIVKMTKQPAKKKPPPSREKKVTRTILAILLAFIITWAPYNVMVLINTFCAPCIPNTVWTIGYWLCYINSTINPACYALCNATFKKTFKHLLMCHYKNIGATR
UniProt P20309, whole entry, looked up: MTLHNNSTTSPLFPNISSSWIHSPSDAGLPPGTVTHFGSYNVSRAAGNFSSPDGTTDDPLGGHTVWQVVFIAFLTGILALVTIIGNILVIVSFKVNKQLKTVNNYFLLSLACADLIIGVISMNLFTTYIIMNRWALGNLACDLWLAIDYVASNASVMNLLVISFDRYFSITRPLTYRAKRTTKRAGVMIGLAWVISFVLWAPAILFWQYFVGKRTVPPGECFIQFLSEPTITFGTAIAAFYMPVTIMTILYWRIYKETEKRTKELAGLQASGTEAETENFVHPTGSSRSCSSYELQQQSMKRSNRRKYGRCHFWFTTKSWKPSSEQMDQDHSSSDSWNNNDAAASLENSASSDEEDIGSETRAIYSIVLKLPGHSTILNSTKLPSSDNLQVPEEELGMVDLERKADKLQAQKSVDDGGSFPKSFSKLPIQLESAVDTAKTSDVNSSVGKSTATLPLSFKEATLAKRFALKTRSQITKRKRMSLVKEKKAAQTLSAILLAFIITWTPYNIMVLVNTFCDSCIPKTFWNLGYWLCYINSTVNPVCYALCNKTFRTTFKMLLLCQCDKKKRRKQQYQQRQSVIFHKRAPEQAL
UniProt P08173, whole entry, looked up: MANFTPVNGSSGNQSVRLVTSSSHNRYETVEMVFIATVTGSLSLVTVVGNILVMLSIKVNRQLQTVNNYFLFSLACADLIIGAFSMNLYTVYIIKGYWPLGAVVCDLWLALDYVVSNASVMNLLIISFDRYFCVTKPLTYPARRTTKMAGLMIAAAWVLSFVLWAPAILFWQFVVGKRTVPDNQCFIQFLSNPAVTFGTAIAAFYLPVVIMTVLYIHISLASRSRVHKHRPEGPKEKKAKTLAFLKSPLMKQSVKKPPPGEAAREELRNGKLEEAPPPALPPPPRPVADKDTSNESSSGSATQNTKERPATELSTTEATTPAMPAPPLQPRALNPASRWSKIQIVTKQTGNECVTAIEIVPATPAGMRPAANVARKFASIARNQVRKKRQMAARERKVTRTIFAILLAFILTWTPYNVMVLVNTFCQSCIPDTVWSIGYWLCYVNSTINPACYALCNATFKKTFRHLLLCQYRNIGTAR

Assays:
[1] = target: T1, Muscarinic acetylcholine receptor M1 (Homo sapiens, UniProt P11229); assay: Displacement of [3H] N-methylscopolamine from human muscarinic M1 receptor after 30 mins by scintillation counting analysis
[2] = target: T1, Muscarinic acetylcholine receptor M1; conditions: cho-k1
[3] = target: Muscarinic acetylcholine receptor M2 (Homo sapiens, UniProt P08172); conditions: cho-k1
[4] = target: Muscarinic acetylcholine receptor M3 (Homo sapiens, UniProt P20309); conditions: cho-k1
[5] = Displacement of [3H] N-methylscopolamine from muscarinic acetylcholine receptor in guinea pig brain homogenate after 30 mins by scintillation counting analysis
[6] = target: Muscarinic acetylcholine receptor M4 (Homo sapiens, UniProt P08173); conditions: cho-k1
[7] = Displacement of [3H] N-methylscopolamine from muscarinic M2 receptor in guinea pig brain homogenate after 30 mins by scintillation counting analysis
[8] = Inhibition of muscarinic acetylcholine receptor in rat cortex
[9] = Displacement of [3H] N-methylscopolamine from muscarinic M4 receptor in guinea pig brain homogenate after 30 mins by scintillation counting analysis
[10] = Displacement of [3H] N-methylscopolamine from muscarinic M3 receptor in guinea pig brain homogenate after 30 mins by scintillation counting analysis

| SMILES | Ki [2] | Ki [3] | Ki [4] | Ki [5] | other results |
| --- | --- | --- | --- | --- | --- |
| CCN(CC)CCOC(=O)c1ccccc1Sc1ccc(Cl)cc1 | 519 nM | 1340 nM | 109 nM |  | Ki [1]: 2670 nM |
| CC[N+](C)(CC)CCOC(=O)C(O)(c1ccccc1)c1ccccc1 | 1.59 nM | 1.54 nM | 4.25 nM | 0.129 nM | Ki [6]: 13.2 nM |
| OC(CCN1CCCCC1)(c1ccccc1)C1CC2C=CC1C2 (configuration not stated) |  |  |  | 10.5 nM | Ki [6]: 32.1 nM |
| CN1CCC(OC(=O)Cc2cccc(C(F)(F)F)c2)CC1 |  |  |  | 1350 nM |  |
| CC[N+](C)(CC)CCOC(=O)C(c1ccccc1)c1ccccc1 | 5.78 nM |  | 270 nM |  | Ki [1]: 164 nM; Ki [6]: 1690 nM |
| CCN(CC)CCSC(C(=O)OCC=C(C)C)c1ccccc1 (configuration not stated) | 1040 nM |  |  | 4130 nM |  |
| CCN(CC)CCOC(=O)C(C)(c1ccccc1)c1ccc(O)cc1 (configuration not stated) | 0.881 nM | 0.165 nM | 52.2 nM |  | Ki [7]: 44 nM; Ki [1]: 44 nM; Ki [6]: 566 nM |
| CCN(CC)CC#CCOC(=O)C(O)(c1ccccc1)C1CCCCC1 (configuration not stated) |  |  |  |  | Ki [8]: 2 nM |
| CCN(CC)CCOC(=O)C(c1ccccc1)C1(O)CCCCC1 (configuration not stated) | 7.75 nM | 15.1 nM | 8.37 nM | 5.79 nM | Ki [6]: 9.48 nM |
| OC(CCN1CCCCC1)(c1ccccc1)C1CCCCC1 (configuration not stated) |  |  |  |  | Ki [8]: 1.5 nM |
| CC[C@H](C)C(C(=O)OCCCN(CC)CC)c1ccccc1 (some centres not stated) | 10.7 nM | 116 nM | 5.97 nM | 21.3 nM | Ki [6]: 89.6 nM |
| C[n+]1cscc1C(C)(C)OC(=O)c1ccccc1 |  |  |  | 833 nM |  |
| CCN(CC)CCOC(=O)C(CC)(c1ccccc1)c1ccccc1 | 166 nM | 243 nM | 243 nM |  | Ki [9]: 27.3 nM |
| COc1ccc(Cl)cc1NS(=O)(=O)c1c(C)cc(C)cc1C |  |  |  | 33100 nM |  |
| CCN(CC)CCOC(=O)C1(C2CCCCC2)CCCCC1 |  |  |  |  | Ki [8]: 4.6 nM |
| CCN(CC)CCOC(=O)C1(c2ccccc2)CCCC1 |  |  |  |  | Ki [8]: 7.2 nM |
| CCN(CC)CCOC(C)(c1ccccc1)c1ccc(Cl)cc1 (configuration not stated) |  |  |  | 1220 nM |  |
| CCN(CC)CCOC(=O)C1(c2ccc(I)cc2)CCCC1 |  |  |  |  | Ki [8]: 8.6 nM |
| CC(C)(C)N1CC(C(=O)c2ccccc2)C(=O)C1=O (configuration not stated) |  |  |  | 4100 nM |  |
| C[N+](C)(C)CCOC(=O)C(c1ccccc1)c1ccccc1 | 85.7 nM | 348 nM | 384 nM |  | Ki [7]: 254 nM; Ki [1]: 254 nM; Ki [6]: 676 nM |
| COc1cc(Br)cc(C2Nc3c(c(C)nn3C)C(=O)CS2)c1 (configuration not stated) |  |  |  | 18900 nM |  |
| C[N+](C)(C)CC#CC(O)(c1ccccc1)C1CCCC1 (configuration not stated) |  |  |  | 1200 nM |  |
| CN1CCC(OC(=O)C(CO)c2cccc(C(F)(F)F)c2)CC1 (configuration not stated) |  | 30.8 nM | 11.2 nM |  | Ki [9]: 14.2 nM; Ki [10]: 14.2 nM; Ki [6]: 285 nM |
| CN(C)CCSC(c1ccccc1)c1ccccc1 |  |  |  | 775 nM |  |
| CCN(CC)CCOC(=O)C1(c2ccc([N+](=O)[O-])cc2)CCCC1 |  |  |  |  | Ki [8]: 57 nM |
| CCN(CC)CCOC(=O)C(c1ccccc1)N1CCCCC1 (configuration not stated) | 271 nM | 1020 nM | 186 nM |  | Ki [7]: 517 nM; Ki [1]: 517 nM; Ki [10]: 517 nM |
| CC[N+](CC)(CC)CCOC(=O)C(c1ccccc1)c1ccccc1 | 5.75 nM | 738 nM | 0.543 nM |  | Ki [1]: 65.5 nM |
